From patent publication US20260382564A1, “COMPOSITIONS AND METHODS FOR TREATING A DISEASE OR DISORDER ASSOCIATED WITH SENESCENCE” (published 2026)

Legend:
[1] = Example 11: mouse blood cell counts compared with values before treatment; conditions: intraperitoneal three times at 48 h
Description: This experiment aimed to compare the blood parameters and levels of senescence-associated secretory phenotype (SASP) in the brains and kidneys of mice before and after various treatments.
The treatments included: i) administration of FOXO4-DRI (5 mg/kg, n=3), ii) administration of FOXO4-DRI loaded into exosomes (100 million) derived from human WJ-MSCs (FOXO-EXO, n=4), iii) administration of Fisetin (a plant flavonol with senolytic activity, n=3), iv) administration of Fisetin loaded into the same kind of exosomes (Fisetin-EXO, n=4). The schematic of the experimental plan is shown FIG. 6.
The control group consisted of intact animals (n=3), and an additional comparison was made with mice treated with exosomes derived from WJ-MSCs without any additional cargo (n=3). For this purpose, 20 male BALB/C mice aged 24 to 26 weeks were prepared from the National Science and Research Institute and Medicine Innovative Center, Vilnius, Lithuania. The animals were kept under standard vivarium conditions with a 12-h light/dark cycle, a complete diet, and free access to food and water. Animal care and handling were carried out under national and international requirements for the treatment of animals used for scientific purposes.
(§1) Experimental treatments were administered intraperitoneally three times at 48 h intervals using a sterile hypodermic syringe and a stainless-steel needle (26 G). Animals were subjected to intravital blood sampling from the lateral tail vein before and on days 7, and day 21 after the first treatment. On day 22, all animals were humanely sacrificed, their blood was collected for biochemical assessment, and the brain and kidneys were harvested for measurements of SASP.
Blood sampling for hematology was performed from the tail vein. The following parameters were analyzed: white blood cell count (WBC), platelets (PLT), neutrophils (NEU), lymphocytes (LYM), monocytes (MONO), and eosinophils (EOS). This was done using a hematological autoanalyzer (ADVIA2120i Hematology analyzer, Bayer, USA.
Experimental data were processed using the Statistica 10.0 software package. Data are shown in graphs as mean±SEM. In experiment 2 the nonparametric Kruskal-Wallis's test was used for intergroup comparison, whereas Wilcoxon matched pair test was applied for the comparisons within the same group. The differences were considered statistically significant with a P-value equal to or less than 0.05. Senolytics are the compounds that encourage damaged senescent cells to destroy themselves thereby extending the health span of organisms. Cellular senescence is associated with age-related diseases, including cardiovascular diseases, neurodegenerative diseases, type 2 diabetes, osteoarthritis, atherosclerosis, and various types of tumors. According to previously published data, treatments with FOXO4-DRI or Fisetin selectively destroyed senescent cells and produced rejuvenation in older laboratory animals. FOXO4-DRI is a cell-penetrating peptide (CPP) designed by a group of Peter L. J. de Keizer in 2017 to perturb the FOXO4 interaction with p53 [3]. Fisetin's senolytic activity is mediated via the inhibition of pro-survival PI3K/AKT and MAPK pathways, leading to the sensitization of senescent cells to apoptosis. Both compounds' actions do result in activating p53, reducing oxidative stress and inflammation, and modulating the senescence-associated secretory patterns (SASP).

[2] = test system: SASP cytokines (IL-1β, IL-6, TNF-α, TGF-β, and IL-12); assay: SASP cytokine levels in brain and kidneys, overall; conditions: day 22
Description: as §1
Senescence-associated secreted patterns (SASP) were measured in mice brains and kidneys at the end of Experiment 2—on day 22nd after the initial injection of treatment. SASP cytokine concentrations varied between the brain and kidneys of the same mice (FIG. 21-24). Levels of TGF-β1 were bigger in the brain, whereas the contents of IL-1β, IL-6, and TNF-α were higher in the kidneys. IL12p70 was detected only in the kidneys (FIG. 25). All treatments increased the concentration of IL-1β in the brain but only Fisetin+EXO led to significant changes (FIG. 21). […]
SASP cytokines (IL-1β, IL-6, TNF-α, TGF-β, and IL-12) were measured in brain and kidney tissue samples with commercially available ProcartaPlex™ Multiplex Immunoassay Kit (Thermo Fisher Scientific Inc., Waltham, Massachusetts, USA) using Luminex™ magnetic bead technology according to the instructions issued by the manufacturer.

senescent cells = conditions: previously published data [4][5][6][7]; cited from earlier work
[3] = test system: pro-inflammatory cytokines like IL-1β, IL-6, and TNF-α; conditions: previous research [3][4][5]; cited from earlier work

## O=c1c(O)c(-c2ccc(O)c(O)c2)oc2cc(O)ccc12
[1]; day 7, vs before treatment
  monocyte count: notable decrease
[1]; day 22, vs before treatment
  EOS count: notable decrease
  NEU count: notable decrease
  basophil count (BASO): notable decrease
  monocyte count: notable decrease
[1]; overall (no day stated)
  PLT count: not significantly affected
  RBC count: not significantly affected
[2]; brain
  SASP levels: did not produce significant changes
[2]; kidneys
  SASP levels: did not produce significant changes
Senescent cells
  senolytic / rejuvenating effect: selectively destroyed senescent cells and produced rejuvenation in older laboratory animals
[3]
  modulation of SASP levels: reducing the release of pro-inflammatory cytokines like IL-1β, IL-6, and TNF-α
